Laboratory results: article PMC11929711 (Plant Cell Reports, 2025)

Legend:
[1] = molecular target: T1, PDL1His(ΔXF) (human, mainly complex neutral N-glycans (GnGn); mannosidic and hybrid glycans (Man4Gn, Man5Gn) only on N192; N219 mostly unglycosylated); test: ELISA; optimized settings: plates coated with 1 µg PDL1His; serial dilutions of ^WTPD1-Fc fusions 20,000-10 ng/mL; detected with anti-human IgG-HRP; conditions: both partners purified
T1 construct: ectodomain (ECD) of human programmed cell death 1 ligand (PDL1); also called PDL1His (GnGn); recombinant PDL1His; source: N. benthamiana ΔXF leaves, transient, apoplastic fluid, purified (Ni-NTA); also unpurified in apoplastic fluid; not shown: polyhistidine tag, C-terminal, kept

[2] = molecular target: T1, PDL1His(ΔXF); test: SPR; Biacore T200, 25 °C; ^WTPD1-^HFc(HEK) captured to ~80 RU on a CM5 chip (Human antibody capture kit); analyte PDL1His 250-4000 nM; 10 mM HEPES pH 7.4, 150 mM NaCl, 0.005% Tween 20; steady-state analysis, kinetic fit not possible; conditions: both partners purified

EC50 [1]: 5.33 nM | Kd [2]: 2400 nM
B1: ^WTPD1-Fc(HEK) (Fc fusion, human, UniProt Q15116 25-170, looked up)
chain: LDSPDRPWNPPTFSPALLVVTEGDNATFTCSFSNTSESFVLNWYRMSPSNQTDKLAAFPEDRSQPGQDCRFRVTQLPNGRDFHMSVVRARRNDSGTYLCGAISLAPKAQIKESLRAELRVTERRAEVPTAHPSPSPRPAGQFQTLV
modifications: all glyco-sites decorated with complex glycans (bi-, tri- and tetra-antennary, core-fucosylated, with or without terminal sialylation)
